Assay results from BindingDB's records for doi:10.1021/acs.jmedchem.1c01264 (Symeres, 2021).

Sequences of proteins named here, by UniProt entry; tags and fusion partners are left off. A change or cut given only in a name is not applied to a line headed by its entry.
UniProt Q12809: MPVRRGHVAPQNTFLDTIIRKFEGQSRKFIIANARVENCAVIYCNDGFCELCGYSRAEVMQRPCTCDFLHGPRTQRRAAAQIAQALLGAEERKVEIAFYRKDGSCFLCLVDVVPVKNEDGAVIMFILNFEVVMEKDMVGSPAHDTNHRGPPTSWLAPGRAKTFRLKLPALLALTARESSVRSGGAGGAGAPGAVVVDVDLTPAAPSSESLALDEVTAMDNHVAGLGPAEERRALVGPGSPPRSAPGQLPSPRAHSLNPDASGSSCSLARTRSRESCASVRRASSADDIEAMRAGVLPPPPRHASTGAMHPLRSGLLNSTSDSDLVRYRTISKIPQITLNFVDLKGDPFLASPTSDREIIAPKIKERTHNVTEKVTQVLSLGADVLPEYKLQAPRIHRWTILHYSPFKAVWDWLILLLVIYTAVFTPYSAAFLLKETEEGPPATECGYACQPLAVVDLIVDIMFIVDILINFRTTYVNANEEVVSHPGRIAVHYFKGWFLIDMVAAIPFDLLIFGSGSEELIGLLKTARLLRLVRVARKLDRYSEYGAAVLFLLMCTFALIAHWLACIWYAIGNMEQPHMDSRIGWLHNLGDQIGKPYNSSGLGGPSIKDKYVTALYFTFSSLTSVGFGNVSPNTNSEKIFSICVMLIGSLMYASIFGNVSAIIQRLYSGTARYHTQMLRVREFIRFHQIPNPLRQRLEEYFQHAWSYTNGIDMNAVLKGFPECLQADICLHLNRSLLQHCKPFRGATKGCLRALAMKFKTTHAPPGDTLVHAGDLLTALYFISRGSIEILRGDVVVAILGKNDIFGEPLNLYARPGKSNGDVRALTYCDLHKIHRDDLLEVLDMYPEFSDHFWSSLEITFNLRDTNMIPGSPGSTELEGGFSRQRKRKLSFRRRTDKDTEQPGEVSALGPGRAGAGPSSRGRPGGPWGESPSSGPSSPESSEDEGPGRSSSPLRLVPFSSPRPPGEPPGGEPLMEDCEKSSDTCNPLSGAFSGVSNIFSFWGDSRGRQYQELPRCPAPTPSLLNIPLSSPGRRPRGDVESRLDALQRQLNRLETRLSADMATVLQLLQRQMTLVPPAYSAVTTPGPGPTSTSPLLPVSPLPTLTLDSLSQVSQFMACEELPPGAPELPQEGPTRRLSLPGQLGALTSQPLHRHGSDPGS

Target: Potassium voltage-gated channel subfamily H member 2 (Homo sapiens, UniProt Q12809)

CCOc1ccc(-c2nnc([C@H]3C[C@H](NC(=O)c4ccccn4)C3)n2-c2ccccc2F)nc1
IC50: > 25 µM
